From ChEMBL document CHEMBL5532641, “MNK, mTOR or eIF4E-selecting the best anti-tumor target for blocking translation initiation” (Eur J Med Chem, 2023)

The chains behind the UniProt entries cited, without tags or fusion partners. Where a name states a change or a piece, a line headed by the entry shows the natural chain unless it says otherwise.
UniProt P48736: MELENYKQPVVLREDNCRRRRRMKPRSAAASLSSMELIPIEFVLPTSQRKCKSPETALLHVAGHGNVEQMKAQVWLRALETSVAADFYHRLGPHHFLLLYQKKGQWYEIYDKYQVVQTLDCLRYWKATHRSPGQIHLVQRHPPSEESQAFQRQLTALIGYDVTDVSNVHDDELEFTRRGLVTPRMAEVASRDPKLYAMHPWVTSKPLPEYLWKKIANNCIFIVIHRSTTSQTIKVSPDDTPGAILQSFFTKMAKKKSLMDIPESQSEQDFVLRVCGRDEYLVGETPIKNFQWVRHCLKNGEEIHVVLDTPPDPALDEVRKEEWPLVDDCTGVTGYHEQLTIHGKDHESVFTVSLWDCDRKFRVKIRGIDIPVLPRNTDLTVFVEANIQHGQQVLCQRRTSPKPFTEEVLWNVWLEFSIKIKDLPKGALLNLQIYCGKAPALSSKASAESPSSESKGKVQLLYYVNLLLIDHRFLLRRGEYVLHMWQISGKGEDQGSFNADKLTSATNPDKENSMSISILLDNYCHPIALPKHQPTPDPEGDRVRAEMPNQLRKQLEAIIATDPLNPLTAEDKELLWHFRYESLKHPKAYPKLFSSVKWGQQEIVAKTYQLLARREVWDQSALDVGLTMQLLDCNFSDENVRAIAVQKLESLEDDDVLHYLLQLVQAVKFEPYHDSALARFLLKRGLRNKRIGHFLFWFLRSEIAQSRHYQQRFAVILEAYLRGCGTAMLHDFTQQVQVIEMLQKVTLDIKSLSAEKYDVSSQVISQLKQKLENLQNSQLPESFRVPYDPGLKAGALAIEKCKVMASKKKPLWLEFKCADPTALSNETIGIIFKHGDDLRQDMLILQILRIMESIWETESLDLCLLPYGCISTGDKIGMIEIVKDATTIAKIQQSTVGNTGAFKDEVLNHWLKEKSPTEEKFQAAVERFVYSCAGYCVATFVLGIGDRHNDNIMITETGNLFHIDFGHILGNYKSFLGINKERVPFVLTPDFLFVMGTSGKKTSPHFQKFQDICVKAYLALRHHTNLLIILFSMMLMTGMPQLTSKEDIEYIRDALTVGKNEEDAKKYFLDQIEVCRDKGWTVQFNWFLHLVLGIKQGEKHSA

Biological target: Phosphatidylinositol 4,5-bisphosphate 3-kinase catalytic subunit gamma isoform (Homo sapiens, UniProt P48736)

Ki: 165 nM
SMILES: CC(C)n1nc(-c2ccc3oc(N)nc3c2)c2c(N)ncnc21 [SAPANISERTIB]
